Broadly, the Emax is the maximal effect, on the per cent scale that the assay sets.

Protein sequences, listed by entry. Tags and fused reporters are not part of them. Lines headed by an entry give the natural chain unless they say otherwise; changes in a name come on top.
UniProt P41143, whole entry, looked up: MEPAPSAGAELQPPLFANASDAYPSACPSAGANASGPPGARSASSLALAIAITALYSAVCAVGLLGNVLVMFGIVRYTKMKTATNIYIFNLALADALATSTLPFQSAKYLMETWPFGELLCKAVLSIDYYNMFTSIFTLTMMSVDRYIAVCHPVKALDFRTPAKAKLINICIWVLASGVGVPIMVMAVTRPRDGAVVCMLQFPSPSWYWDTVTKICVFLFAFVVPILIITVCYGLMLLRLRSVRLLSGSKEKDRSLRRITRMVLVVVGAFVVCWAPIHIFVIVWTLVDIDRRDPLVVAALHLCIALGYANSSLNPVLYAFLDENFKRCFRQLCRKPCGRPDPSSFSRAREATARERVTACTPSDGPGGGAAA
UniProt P28223, whole entry, looked up: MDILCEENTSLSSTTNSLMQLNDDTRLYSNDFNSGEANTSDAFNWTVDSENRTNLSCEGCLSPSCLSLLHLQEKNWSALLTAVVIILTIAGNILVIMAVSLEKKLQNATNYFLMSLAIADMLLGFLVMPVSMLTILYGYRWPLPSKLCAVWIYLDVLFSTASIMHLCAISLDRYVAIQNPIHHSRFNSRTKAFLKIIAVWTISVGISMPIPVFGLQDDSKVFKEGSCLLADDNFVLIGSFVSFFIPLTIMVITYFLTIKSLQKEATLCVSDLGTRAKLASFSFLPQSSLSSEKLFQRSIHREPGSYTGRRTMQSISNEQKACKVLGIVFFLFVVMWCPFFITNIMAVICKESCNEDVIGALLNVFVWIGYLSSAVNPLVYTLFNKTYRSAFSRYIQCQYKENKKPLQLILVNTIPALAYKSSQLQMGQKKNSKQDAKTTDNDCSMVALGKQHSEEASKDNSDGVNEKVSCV
UniProt P35372, whole entry, looked up: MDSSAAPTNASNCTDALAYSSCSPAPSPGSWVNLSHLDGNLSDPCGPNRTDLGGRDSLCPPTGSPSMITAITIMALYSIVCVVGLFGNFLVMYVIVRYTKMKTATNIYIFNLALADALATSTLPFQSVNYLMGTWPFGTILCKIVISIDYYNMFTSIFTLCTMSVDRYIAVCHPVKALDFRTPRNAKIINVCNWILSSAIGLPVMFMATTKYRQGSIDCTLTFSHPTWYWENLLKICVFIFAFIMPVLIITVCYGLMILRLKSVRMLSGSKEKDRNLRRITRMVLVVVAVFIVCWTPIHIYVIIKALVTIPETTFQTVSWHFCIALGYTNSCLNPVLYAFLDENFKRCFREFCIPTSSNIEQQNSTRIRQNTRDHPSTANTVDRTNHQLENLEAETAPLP
UniProt P41145: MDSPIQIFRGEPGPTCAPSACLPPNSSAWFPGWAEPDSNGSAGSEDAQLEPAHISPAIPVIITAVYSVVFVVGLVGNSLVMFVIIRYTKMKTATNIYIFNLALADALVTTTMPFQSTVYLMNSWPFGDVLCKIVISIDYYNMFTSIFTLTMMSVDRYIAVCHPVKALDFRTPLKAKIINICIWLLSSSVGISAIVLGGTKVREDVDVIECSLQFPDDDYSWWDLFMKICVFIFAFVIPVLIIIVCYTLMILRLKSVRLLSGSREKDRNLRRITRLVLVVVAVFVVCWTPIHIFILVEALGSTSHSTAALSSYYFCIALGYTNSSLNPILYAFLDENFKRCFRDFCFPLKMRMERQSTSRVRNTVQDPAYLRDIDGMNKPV

Activity calls are given as the source filed them. The rule behind the calls is not given here.

The target of assay [1] is Delta-type opioid receptor (Homo sapiens) (UniProt P41143). In words: Agonist activity at human delta opioid receptor expressed in CHO-K1 cells assessed as inhibition of forskolin-stimulated cAMP accumulation at <1 uM by HitHunter assay based luminescence analysis. The assay is classed as functional, cell-based. A general note: cAMP levels reflect the balance of adenylyl cyclase and phosphodiesterase activity.

In assay [2] the target is 5-hydroxytryptamine receptor 2A (Homo sapiens, UniProt P28223). In words: Binding affinity to 5HT2A receptor (unknown origin) at 10 uM by radioligand displacement assay. On the technique in general: Displacement assays read how much labelled ligand stays bound in the presence of the test substance.
The target in assay [3] is Mu-type opioid receptor (Homo sapiens, UniProt P35372). In words: Agonist activity at human mu opioid receptor expressed in CHO-K1 cells assessed as inhibition of forskolin-stimulated cAMP accumulation at 10 uM by HitHunter assay based luminescence analysis. The format is functional, cell-based.
The target in assay [4] is Kappa-type opioid receptor (Homo sapiens, UniProt P41145). In words: Agonist activity at human kappa opioid receptor expressed in CHO-K1 cells assessed as inhibition of forskolin-stimulated cAMP accumulation by HitHunter assay based luminescence analysis relative to control. The assay is classed as functional, cell-based. The note with it: filed as agonist.

With `C/C=C1/CN2CC[C@]34C(=C(C(=O)OC)[C@H]1C[C@H]23)Nc1ccc(Br)cc14`, in assay [1], the result was inactive. In addition, the Activity in assay [2] is < 50%.

With `CN(C(=O)Cc1ccc(Cl)c(Cl)c1)[C@H]1CCCC[C@@H]1N1CCCC1`, in assay [3], the outcome was inactive. Besides, the maximal effect (Emax) in assay [4] was 100%.

(Values after ChEMBL document CHEMBL6074668 (J Med Chem, 2024).)
